Test [1] addresses BCL-XLΔC (Homo sapiens, UniProt Q07817). The test can be described thus: High-throughput competitive FP binding screen, FITC-BAD BH3/BCL-XLΔC interaction. The note with it: FITC-BAD BH3/BCL-XLΔC interaction pair.
Test [2] has as its system MCL-1ΔNΔC. The test can be described thus: High-throughput competitive FP binding screen, FITC-MCL-1 SAHB/MCL-1ΔNΔC interaction. To be noted: selectivity for MCL-1ΔNΔC over BCL-XLΔC targeting (BCL-XL % Bound minus MCL-1 % Bound).
Test [3] concerns the target MCL-1ΔNΔC (Homo sapiens, UniProt Q07820). Described as above. The note with it: FITC-MCL-1 SAHB/MCL-1ΔNΔC interaction pair, competitive FP screen.

Sequences of proteins named here, by UniProt entry; tags and fusion partners are left off. Residues count along the entry.
UniProt Q07817, 1-212 limits assumed, stated change not applied: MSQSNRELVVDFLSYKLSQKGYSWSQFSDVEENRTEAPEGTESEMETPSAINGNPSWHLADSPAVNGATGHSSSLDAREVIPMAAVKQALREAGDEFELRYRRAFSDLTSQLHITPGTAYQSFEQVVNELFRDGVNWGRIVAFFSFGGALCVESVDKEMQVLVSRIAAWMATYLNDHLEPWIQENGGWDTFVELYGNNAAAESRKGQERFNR
UniProt Q07820, 172-320 limits assumed, stated change not applied: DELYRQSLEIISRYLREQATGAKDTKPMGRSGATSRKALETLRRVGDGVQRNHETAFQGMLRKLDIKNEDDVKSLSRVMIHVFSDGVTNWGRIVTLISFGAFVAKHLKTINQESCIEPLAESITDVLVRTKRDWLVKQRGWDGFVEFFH

Structures are written as SMILES.

Regarding `COc1ccc(OC)c(C=C(C#N)C#N)c1`, the “BCL-XL % Bound” value in test [1] is given as 98.56%. Moreover, the “Spec Values” in test [2] came out at 105.6. In test [3], the “MCL-1% Bound” value was −7.035%.

Source of the values: patent US20150315211A1, “SMALL MOLECULES FOR THE MODULATION OF MCL-1 AND METHODS OF MODULATING CELL DEATH, CELL DIVISION, CELL DIFFERENTIATION AND METHODS OF TREATING DISORDERS” (priority 2010, published 2015).
